# Test results taken from patent publication US8318807B2 (Laurus Labs Private Limited, priority 2010, dated 2012).
# Tests used:
# [1] = Physical stability upon slurrying in water; assay type: physicochemical; details: three days
# Text: […]. […] […]. […]
# [2] = Physical stability at elevated temperature and/or relative humidity, analysed by XRPD; assay type: physicochemical
# Description: Physical stability was evaluated at approximately 40° C., 60° C., 25° C./75% RH, 25° C./98% RH, and 40° C./75% RH and XRPD was used to detect dissociation or form conversion. Vials of each cocrystal were subjected to each condition for durations of two weeks, one month, and two months. Upon completion of the duration allowed, the samples were immediately analyzed by XRPD.
substance,measurement,setting,value
pterostilbene:piperazine [cocrystal 4],Behaviour upon slurrying in water,[1],precipitation of pterostilbene
same,Results (by XRPD),"[2]; 25° C./75% RH, 2 weeks",cocrystal 4
same,Results (by XRPD),"[2]; 25° C./75% RH, 4 weeks",cocrystal 4
same,Results (by XRPD),"[2]; 25° C./75% RH, 8 weeks",cocrystal 4
same,Results (by XRPD),"[2]; 25° C./98% RH, 2 weeks",cocrystal 4
same,Results (by XRPD),"[2]; 25° C./98% RH, 4 weeks",cocrystal 4
same,Results (by XRPD),"[2]; 25° C./98% RH, 8 weeks",cocrystal 4
same,Results (by XRPD),"[2]; 40° C., 2 weeks",cocrystal 4
same,Results (by XRPD),"[2]; 40° C., 4 weeks",cocrystal 4
same,Results (by XRPD),"[2]; 40° C., 8 weeks",cocrystal 4
same,Results (by XRPD),"[2]; 40° C./75% RH, 2 weeks",cocrystal 4
same,Results (by XRPD),"[2]; 40° C./75% RH, 4 weeks",cocrystal 4
same,Results (by XRPD),"[2]; 40° C./75% RH, 8 weeks",cocrystal 4
same,Results (by XRPD),"[2]; 60° C., 2 weeks",cocrystal 4
same,Results (by XRPD),"[2]; 60° C., 4 weeks",cocrystal 4
same,Results (by XRPD),"[2]; 60° C., 8 weeks",cocrystal 4
